The numbers were not newly measured in PMC3220680, “Microsecond Molecular Dynamics Simulations of Intrinsically Disordered Proteins Involved in the Oxidative Stress Response” (PLoS ONE, 2011), which cites them from elsewhere.

Protein sequences, listed by entry. Tags and fused reporters are not part of them. Residues count along the entry.
UniProt Q9Z2X8, 309-624: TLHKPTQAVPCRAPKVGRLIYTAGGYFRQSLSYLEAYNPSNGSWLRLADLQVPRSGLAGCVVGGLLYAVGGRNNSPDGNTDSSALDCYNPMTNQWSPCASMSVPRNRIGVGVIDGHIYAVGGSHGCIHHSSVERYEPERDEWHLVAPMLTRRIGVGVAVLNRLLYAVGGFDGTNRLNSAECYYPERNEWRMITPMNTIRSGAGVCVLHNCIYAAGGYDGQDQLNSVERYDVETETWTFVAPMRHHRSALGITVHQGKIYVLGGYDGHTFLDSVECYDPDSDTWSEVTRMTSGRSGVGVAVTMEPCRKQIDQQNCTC
UniProt Q60795, whole entry, looked up, tested part not stated: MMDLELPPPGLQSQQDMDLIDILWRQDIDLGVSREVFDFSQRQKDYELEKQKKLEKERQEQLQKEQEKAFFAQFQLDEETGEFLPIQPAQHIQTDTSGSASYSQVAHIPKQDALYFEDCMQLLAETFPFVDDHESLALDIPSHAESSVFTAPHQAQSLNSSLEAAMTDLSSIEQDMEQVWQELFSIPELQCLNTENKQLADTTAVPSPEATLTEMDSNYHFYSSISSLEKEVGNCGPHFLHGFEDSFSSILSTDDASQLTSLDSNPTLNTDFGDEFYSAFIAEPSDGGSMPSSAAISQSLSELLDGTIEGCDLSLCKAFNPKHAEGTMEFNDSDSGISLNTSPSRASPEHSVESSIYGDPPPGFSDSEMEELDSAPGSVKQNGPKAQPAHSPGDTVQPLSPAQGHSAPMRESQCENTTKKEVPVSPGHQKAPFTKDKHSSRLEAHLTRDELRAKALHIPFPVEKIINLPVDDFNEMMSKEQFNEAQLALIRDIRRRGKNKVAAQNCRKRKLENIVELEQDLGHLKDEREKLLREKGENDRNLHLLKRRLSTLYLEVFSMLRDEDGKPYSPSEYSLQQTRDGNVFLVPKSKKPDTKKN

The term Kd denotes the free concentration of one partner at which half of the binding sites on the other are occupied at equilibrium, for simple one-to-one binding.

The series has as its target Keap1 Kelch (Mus musculus) (UniProt Q9Z2X8). Briefly: ITC. The following applies: cited from earlier work.

On to “Nrf2 ETGE 9-mer peptide 9-mer ETGE peptide (from UniProt Q60795)”, for which the equilibrium dissociation constant (Kd) is 182 nM.
